# Laboratory results: patent US7696168 (TUFTS MEDICAL CENTER, dated 2010)
# Molecular target: T1, PAR1 S309P mutant (human, UniProt P25116 42-425)
# T1 sequence (looked up): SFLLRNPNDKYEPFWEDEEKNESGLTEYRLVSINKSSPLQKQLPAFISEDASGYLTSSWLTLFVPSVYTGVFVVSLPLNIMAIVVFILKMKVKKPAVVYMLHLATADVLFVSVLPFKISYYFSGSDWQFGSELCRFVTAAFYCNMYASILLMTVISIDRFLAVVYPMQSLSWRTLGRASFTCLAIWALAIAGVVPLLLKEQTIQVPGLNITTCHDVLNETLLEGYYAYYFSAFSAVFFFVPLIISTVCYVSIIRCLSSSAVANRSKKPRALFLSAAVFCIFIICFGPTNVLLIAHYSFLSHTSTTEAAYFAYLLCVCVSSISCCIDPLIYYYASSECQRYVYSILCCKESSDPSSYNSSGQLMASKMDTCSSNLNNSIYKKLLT
# Experiment: cell-based or functional assay
substance,measurement,value
thrombin (enzyme),loss of efficacy against wild type PAR1 (InsP),1.6 fold
